Laboratory results reported in patent US20260384430A1, “PERIPHERALLY RESTRICTED GABA POSITIVE ALLOSTERIC MODULATORS FOR THE TREATMENT OF IRRITABLE BOWEL SYNDROME AND OTHER AILMENTS OF THE PERIPHERAL NERVOUS SYSTEM” (published 2026).

Sequences of proteins named here, by UniProt entry; tags and fusion partners are left off. Residues count along the entry.
UniProt P18507, 40-475 limits assumed: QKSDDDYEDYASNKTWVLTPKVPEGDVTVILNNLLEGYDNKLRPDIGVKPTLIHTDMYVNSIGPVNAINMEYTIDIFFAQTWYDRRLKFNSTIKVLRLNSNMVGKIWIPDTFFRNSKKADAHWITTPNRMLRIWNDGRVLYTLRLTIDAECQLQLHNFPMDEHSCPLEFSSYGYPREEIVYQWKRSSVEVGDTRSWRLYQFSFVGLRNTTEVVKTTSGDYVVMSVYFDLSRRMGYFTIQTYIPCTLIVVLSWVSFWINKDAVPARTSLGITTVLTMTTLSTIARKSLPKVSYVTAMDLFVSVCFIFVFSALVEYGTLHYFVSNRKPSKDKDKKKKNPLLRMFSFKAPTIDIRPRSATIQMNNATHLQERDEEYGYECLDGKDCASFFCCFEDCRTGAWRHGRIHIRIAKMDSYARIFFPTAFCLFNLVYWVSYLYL
UniProt P34903, 29-492 limits assumed: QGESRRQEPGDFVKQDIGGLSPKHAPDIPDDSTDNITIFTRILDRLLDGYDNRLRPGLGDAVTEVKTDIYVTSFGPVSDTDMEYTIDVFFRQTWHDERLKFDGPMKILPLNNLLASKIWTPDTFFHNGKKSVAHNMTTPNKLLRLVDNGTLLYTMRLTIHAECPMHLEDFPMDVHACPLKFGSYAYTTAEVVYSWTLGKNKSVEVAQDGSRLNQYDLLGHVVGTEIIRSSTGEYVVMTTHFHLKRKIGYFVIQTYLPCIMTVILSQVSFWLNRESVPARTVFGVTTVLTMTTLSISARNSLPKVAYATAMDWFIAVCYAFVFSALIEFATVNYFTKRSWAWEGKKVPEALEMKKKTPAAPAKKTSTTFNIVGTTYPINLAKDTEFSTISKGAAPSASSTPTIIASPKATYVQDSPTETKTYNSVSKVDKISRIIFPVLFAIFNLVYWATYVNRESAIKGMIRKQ
UniProt P47870, 25-512 partner limits assumed: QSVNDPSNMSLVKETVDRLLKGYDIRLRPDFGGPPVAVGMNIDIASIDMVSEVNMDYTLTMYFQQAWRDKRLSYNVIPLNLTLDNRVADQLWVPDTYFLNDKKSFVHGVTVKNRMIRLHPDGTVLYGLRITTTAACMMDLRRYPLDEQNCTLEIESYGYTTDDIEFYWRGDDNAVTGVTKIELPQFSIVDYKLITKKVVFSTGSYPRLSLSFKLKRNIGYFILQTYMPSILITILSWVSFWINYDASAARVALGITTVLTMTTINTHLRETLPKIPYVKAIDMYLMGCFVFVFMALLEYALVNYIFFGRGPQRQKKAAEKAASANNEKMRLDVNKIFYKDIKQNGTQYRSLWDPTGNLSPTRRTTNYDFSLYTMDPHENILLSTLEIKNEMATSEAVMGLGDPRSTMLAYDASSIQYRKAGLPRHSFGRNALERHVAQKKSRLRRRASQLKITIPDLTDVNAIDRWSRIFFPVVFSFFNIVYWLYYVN

Target: GABAA(α3β2γ2) (Homo sapiens, UniProt P18507+P34903)
Assay: Modulatory effect (automated patch-clamp, QPatch) on GABA-evoked currents in cells stably transfected with GABAA(α3β2γ2)
Details: transfected Ltk cells, 2.0 μM GABA for 4 s, holding potential −80 mV; for EC50: 30 s prewash with test item, room temperature; for Max % (Emax): upper asymptote of dose-response fit
Protocol: Modulatory effects of the compounds of this disclosure were investigated using cells stably transfected with GABA-activated channels of the GABAA(α3β2γ2) subtype together with submaximal GABA concentrations. Expression of GABA receptor were induced by adding Dexamethasone to the cells for 24 to 48 h before experimentation. In general, cells were passaged at a confluence of about 80 to 90%. For electrophysiological measurements cells were harvested at a confluence of about 80 to 90% from sterile culture flasks containing culture complete medium. Cells were transferred as suspension in PBS to the QPatch 16× or QPatch HTX system to the centrifuge/washer directly. Cells were incubated at 37 °C in a humidified atmosphere with 5% CO2 (rel. humidity about 95%). The cells were continuously maintained in and passaged in sterile culture flasks containing a 1:1 mixture of Dulbecco's modified eagle medium and nutrient mixture D-MEM/F-12 (1×, liquid, with L-Glutamine), supplemented with 10% foetal bovine serum and 1.0% Penicillin/Streptomycin solution and neomycin. The 1× bath solution was made at least every 5 days out of a sterile 10× bath solution, which had been prepared prior to the experimental start of the present study and stored at 1 °C to 9 °C. The final bath solution included Sodium Chloride 137 mM, Potassium Chloride 4 mM, Calcium Chloride 1.8 mM, Magnesium Chloride 1 mM, HEPES 10 mM, D-Glucose 10 mM, pH (NaOH) 7.4. The 1× intracellular solution was thawed every day and includes Potassium Chloride 130 mM, Magnesium Chloride 1 mM, Mg-ATP 5 mM, HEPES 10 mM, EGTA 5 Mm, pH (KOH) 7.2. Automated patch-clamping: Cells were transferred as suspension in serum-free medium to the QPatch HTX system and kept in the cell storage tank during experiments. All solutions applied to cells including the intracellular solution were maintained at room temperature (19 °C to 30 °C). After formation of a Gigaohm seal between the patch electrodes and transfected individual Ltk cells were ruptured to assure electrical access to the cell interior (whole-cell patch-configuration). Inward currents were measured upon application of 2.0 μM GABA to patch-clamped cells for 4 s. During the entire experiment the cells were voltage-clamped at a holding potential of −80 mV. For the analysis of test items, GABAA receptors were stimulated by 2.0 μM GABA and test item combinations described below. Thirty-second prewash steps with test items was performed in between two agonist applications. The dose-response curve was fit with a sigmoidal three parameter equation current=Emax/1+10^((LogEC50−X)*H) where X is the compound concentration, Emax the upper asymptote, EC50 the concentration of test item at half maximal effect, and H is the Hill coefficient. SigmaPlot 11.0 was used for construction of curve.

Row | SMILES | EC50 [nM] | Max % (Emax)
1 | O=C(O)c1nnn2c1CN=C(c1ccccc1F)c1cc(Cl)ccc1-2 | < 50 | ++ (Emax is 50-100%)
2 | O=C(O)c1cnn2c1CN=C(c1ccccc1F)c1cc(Cl)ccc1-2 | 50 to 100 | +++ (Emax >100%)
3 | O=C(O)c1ncn2c1CN=C(c1ccccc1F)c1cc(Cl)ccc1-2 | < 50 | ++ (Emax is 50-100%)
